The values below come from US20040086900A1, “Cloning of mammalian genes in microbial organisms and methods for pharmacological screening” (priority 1990, published 2004).

This test relates to yeast containing RAS2^va119 expressing rat DPD gene. Conditions: RAS2^va119 host, cells incubated in agent.

Take `COc1ccc(C2CNC(=O)C2)cc1OC1CCCC1` (stereo not shown) [Rolipram]: the “Reversal of heat shock resistance conferred by rat DPD” value is “become heat shock sensitive again”.
